The target of the experiment is T1, rat ROMK (Rattus norvegicus, UniProt P35560).
T1 construct: expressed in transfected cells; host or cells: 293T cell line 208-4 (lentiviral transduction, GFP coexpressed)
T1 sequence (P35560 1-391): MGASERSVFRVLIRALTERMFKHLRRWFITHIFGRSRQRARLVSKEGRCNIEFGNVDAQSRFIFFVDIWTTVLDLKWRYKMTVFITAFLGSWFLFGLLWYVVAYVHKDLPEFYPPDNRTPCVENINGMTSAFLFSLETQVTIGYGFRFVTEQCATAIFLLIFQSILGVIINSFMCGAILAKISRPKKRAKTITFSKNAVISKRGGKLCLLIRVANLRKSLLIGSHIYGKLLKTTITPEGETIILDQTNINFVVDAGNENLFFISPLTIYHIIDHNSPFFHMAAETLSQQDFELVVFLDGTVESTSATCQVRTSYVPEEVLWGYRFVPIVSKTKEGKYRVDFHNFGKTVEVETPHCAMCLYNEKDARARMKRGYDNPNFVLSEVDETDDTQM
Description: Whole-cell patch-clamp of ROMK currents in 208–4 cells. The format is cell-based. The settings on record: blockade at 1 μM estimated from fitted Hill curve (four parameters), whole-cell conductance, n = 3–6, read-out: Activity (ROMK channel blocking activity, percentage of blockade at 1 μM). The text has this: The cDNAs for rat ROMK and mouse GIRK1, 2, and 4 were generously donated by Drs Mikio Hayashi (Kansai Medical University) and David Weaver (Vanderbilt University). The ROMK channels were stably expressed by a cell line, 208–4, which was transduced with lentiviral vectors coexpressing the channel and green fluorescent protein (GFP) as described previously. The GIRK genes, cloned in a pCMV6 plasmid (Origene Technologies Inc, Rockville, MD), were transiently expressed in 293T cells with calcium phosphate transfection. GIRK channel currents were recorded 24 h after transfection.
Cells grown on small cover glasses (3 × 18 mm) were placed in a recording chamber. Whole-cell currents were recorded in Tyrode solution using an Axopatch 200B amplifier (Axon Instruments, Foster City, CA) at 25°C. Tyrode solution contained (in mM): NaCl 140, KCl 5.4, NaH2PO4 0.33, CaCl2 2, MgCl2 1, HEPES 5, and glucose 5.5 (pH 7.4 adjusted with NaOH). […] Whole-cell currents were recorded 60 sec after the peptide application and those from 100 to 300 msec of the step pulses were averaged. […] Whole-cell conductance was calculated as the slope of the current-voltage (I-V) relationship from -140 mV to -100 mV and normalized to the initial value (0 μM TPN), in which BaCl2-resistant current was subtracted and indicted as a percentage.

In the case of `CC[C@H](C)[C@@H]1NC(=O)[C@H](CCCNC(=N)N)NC(=O)[C@H](CC(N)=O)NC(=O)[C@@H]2CSSC[C@@H](C(=O)NCC(=O)N[C@@H](CCCCN)C(=O)N[C@@H](CCCCN)C(N)=O)NC(=O)[C@H](CCCCN)NC(=O)[C@H](CCCCN)NC(=O)[C@H](Cc3c[nH]c4ccccc34)NC(=O)[C@H](CSSC[C@H](NC(=O)[C@H](CC(C)C)NC(=O)[C@H](C)N)C(=O)N[C@@H](CC(N)=O)C(=O)N2)NC(=O)[C@H](CCC(N)=O)NC(=O)[C@H](Cc2c[nH]cn2)NC(=O)[C@@H]2CCCN2C(=O)[C@H]([C@@H](C)CC)NC(=O)[C@H]([C@@H](C)CC)NC1=O` [Peptide 1, TPN-Q, reference compound], the inhibition at 1 µM was above 80%.

The record behind these values is article PMC7665585, “Antidepressive effect of an inward rectifier K^+ channel blocker peptide, tertiapin-RQ” (PLoS ONE, 2020).
